PubChem BioAssay AID720709 (National Center for Advancing Translational Sciences (NCATS), 2013)
The list shows a part of the results, in another mix than the full data. Inconclusive results are not listed. Active and inactive are the calls of the source. The call rests on the fitted dose curve; in most records, active means well fitted inhibition curve with a large enough effect; inconclusive means small, poorly fitted or top-dose-only effect; inactive means no such curve, though single readings can be large or run the other way.

By UniProt entry, the sequences of proteins in these tests, tags left out.
UniProt O95398, whole entry: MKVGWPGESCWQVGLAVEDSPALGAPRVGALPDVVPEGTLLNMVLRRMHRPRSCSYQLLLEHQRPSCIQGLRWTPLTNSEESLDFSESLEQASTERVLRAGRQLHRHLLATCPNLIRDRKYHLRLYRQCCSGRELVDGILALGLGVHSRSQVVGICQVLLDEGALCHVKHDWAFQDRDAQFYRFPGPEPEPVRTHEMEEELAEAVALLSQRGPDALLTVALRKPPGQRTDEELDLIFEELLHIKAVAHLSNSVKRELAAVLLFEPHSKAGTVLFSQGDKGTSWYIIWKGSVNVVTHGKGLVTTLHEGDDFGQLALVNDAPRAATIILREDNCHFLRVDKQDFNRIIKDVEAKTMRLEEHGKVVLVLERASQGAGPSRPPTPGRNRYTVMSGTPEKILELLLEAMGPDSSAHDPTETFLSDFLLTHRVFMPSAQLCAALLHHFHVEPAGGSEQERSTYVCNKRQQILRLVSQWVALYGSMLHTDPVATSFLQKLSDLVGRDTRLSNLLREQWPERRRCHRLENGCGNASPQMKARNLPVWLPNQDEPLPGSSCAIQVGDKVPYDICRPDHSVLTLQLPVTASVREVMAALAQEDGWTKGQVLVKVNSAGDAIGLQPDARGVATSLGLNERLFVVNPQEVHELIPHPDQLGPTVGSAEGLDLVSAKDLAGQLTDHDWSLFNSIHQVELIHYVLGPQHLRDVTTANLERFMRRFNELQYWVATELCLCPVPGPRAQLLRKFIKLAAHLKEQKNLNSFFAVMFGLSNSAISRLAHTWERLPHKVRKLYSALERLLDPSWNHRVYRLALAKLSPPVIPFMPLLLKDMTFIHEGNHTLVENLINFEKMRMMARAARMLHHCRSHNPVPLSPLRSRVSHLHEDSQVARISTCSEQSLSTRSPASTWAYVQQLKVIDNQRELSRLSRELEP

biological target: Rap guanine nucleotide exchange factor 3 (Homo sapiens) (UniProt O95398); assay: qHTS for Antagonist of cAMP-regulated guanine nucleotide exchange factor 3 (EPAC1): primary screen; conditions: EPAC1 GEF assay, Rap1b-BODIPY-GDP exchange fluorescence; at 115 µM (top of the series); further: nearly all actives have a fitted effect of over 50% in size
From the text: In multi-cellular eukaryotic organisms, the effects of cAMP are transduced by two ubiquitously-expressed intracellular cAMP receptors, the classic protein kinase A/cAMP-dependent protein kinase (PKA/cAPK) and the more recently discovered exchange protein directly activated by cAMP/cAMP-regulated guanine nucleotide exchange factor (EPAC/cAMP-GEF). Both PKA and EPAC are ubiquitously expressed in all tissues, and an increase in intracellular cAMP levels will lead to the activation of both PKA and EPAC. Therefore, careful dissections of the individual role and relative contribution of EPAC and PKA within the overall cAMP signaling in various model systems are critical for further elucidating the mechanism of cAMP signaling. To date no EPAC-specific antagonists and agonist, as well as isoform-specific agonists have been reported, and developing EPAC-specific pharmacological probes to determine the physiological functions that EPAC play in the overall cAMP-mediated signaling remains a major challenge within the research field. Furthermore, identified regulators of EPAC may lead to new mechanism-based therapeutic strategies specifically targeting the EPAC / cAMP-signaling components as EPAC has been implicated to play important roles in major human pathological conditions such as diabetes, heart disease, and cancer. This qHTS will be used to screen the Molecular Libraries Small Molecule Repository (MLSMR) as a concentration-titration series using the NCGC unique quantitative screening (qHTS) platform to find inhibitors for EPAC1. In addition, this assay will also be used as a counterscreen for the EPAC2 qHTS. This fluorescent based assay is developed and validated for EPAC1 that measures exchange using EPAC effector Rap1 complex with BODIPY-GDP, a GDP analog with a tethered fluorophores. Inhibitors are identified by monitoring the change in fluorescence signal as the exchanged free BODIPY-GDP has a reduced fluorescence compared to Rap1-bound BODIPY-GDP. Decrease in signal (inhibition) is the desired outcome for the EPAC1 antagonist while no activity in this assay is desired for the EPAC2 antagonist counterscreen. de Rooij, J., Zwartkruis, F. J., Verheijen, M. H., Cool, R. H., Nijman, S. M., Wittinghofer, A., and Bos, J.L. (1998) Nature 396, 474-477 [2] Kawasaki, H., Springett, G. M., Mochizuki, N., Toki, S., Nakaya, M., Matsuda, M., Housman, D. E., and Graybiel, A. M. (1998) Science 282, 2275-2279 NIH Chemical Genomics Center [NCGC] NIH Molecular Libraries Probe Centers Network [MLPCN] MLPCN Grant: NS066510 Assay Submitter (PI): Xiaodong Cheng, The University of Texas, Medical Branch
Briefly, three uL of reagents (100 nM EPAC1, 250 nM RAP1B-BODIPY-GDP, 50 uM GDP) were dispensed into a 1536-well Greiner black solid-bottom medium binding assay plate. Controls and test compounds (23 nL) were transferred to the plate via a Kalypsys pin tool equipped with a 1536-pin array. The plates were centrifuged at 1,000 rpm for 15 seconds followed by 5 minute incubation at room temperature. The assay plates were read at 5 minute intervals for 30 minutes in the ViewLux plate reader using 480nm excitation and 540nm emission filters. The results were normalized to the […] positive control ATA and DMSO.

| SMILES | activity change, negative = inhibition |
| --- | --- |
| CN(C)C(=O)c1c([N+](=O)[O-])cc([N+](=O)[O-])cc1[N+](=O)[O-] | inactive: -22.1% |
| CP(=O)(Nc1ccc(Cl)cc1)Oc1ccc(F)cc1 (configuration not stated) | inactive: 1.7% |
| COc1ccccc1OP(C)(=O)Nc1ccccc1Br (configuration not stated) | inactive: 5.96% |
| CC(C)(C)c1ccc(OP(C)(=O)O)cc1 | inactive: 15% |
| CCc1ccc(OP(C)(=O)Nc2cccnc2)cc1 (configuration not stated) | inactive: 20.6% |
| CP(=O)(Oc1ccccc1)N1CCOC1=O (configuration not stated) | inactive: 14.5% |
| O=C(OCCCN1CCCC1)C(O)(c1ccccc1)C1CCCCC1 (configuration not stated) | inactive: 19.1% |
| COc1ccccc1OP(C)(=O)Nc1c(C)n(C)n(-c2ccccc2)c1=O (configuration not stated) | inactive: 4.49% |
| COc1ccc(OP(C)(=O)Nc2ccc(Br)cc2)cc1 (configuration not stated) | inactive: -3.86% |
| CCN(CC)CC(O)COC(=O)C(O)(c1ccccc1)C1CCCCC1 (configuration not stated) | inactive: -2% |
| CP(=O)(OC12CC3CC(CC(C3)C1)C2)OC12CC3CC(CC(C3)C1)C2 | inactive: 9.32% |
| CCOC(=O)c1ccc(NP(C)(=O)Oc2ccc(Cl)cc2)cc1 (configuration not stated) | inactive: 1.24% |
| Nc1ccc2c(ccc3cccnc32)n1.O=[N+]([O-])c1cc([N+](=O)[O-])c(O)c([N+](=O)[O-])c1 | inactive: -7.07% |
| CCCCCCCCCCCCCCCC1C[N+](C)(C)CCOP(C)(=O)O1 (configuration not stated) | inactive: -21.9% |
| CP(=O)(Nc1ccc(Cl)cc1Cl)Oc1ccccc1 (configuration not stated) | inactive: -12.5% |
| CP(=O)(OCCOc1ccccc1)OCCOc1ccccc1 | inactive: -3.35% |
| COc1ccc(OP(C)(=O)Nc2ccccc2Br)cc1 (configuration not stated) | inactive: 8.19% |
| COc1ccccc1OP(C)(=O)Nc1ccc(C)c(C)c1 (configuration not stated) | inactive: -6.58% |
| CCc1ccc(OP(C)(=O)O)cc1 | inactive: -10.9% |
| COc1ccccc1OP(C)(=O)Nc1ccc(C)cc1C (configuration not stated) | inactive: -4.33% |
| CP(=O)(Nc1ccccn1)Oc1ccccc1 (configuration not stated) | inactive: 0.558% |

| SMILES | activity change, negative = inhibition |
| --- | --- |
| Cc1c(NP(C)(=O)Oc2ccc(C(C)C)cc2)c(=O)n(-c2ccccc2)n1C (configuration not stated) | inactive: 8.57% |
| O=[N+]([O-])c1cc([N+](=O)[O-])c(Nc2ccccn2)c([N+](=O)[O-])c1 | inactive: -7.04% |
| CN(C)CCOC(=O)C(O)(c1ccccc1)C1CCCC1 (configuration not stated) | inactive: 3.73% |
| COc1ccc(OP(C)(=O)Nc2ccccn2)cc1 (configuration not stated) | inactive: 13.4% |
| COc1ccccc1OP(C)(=O)Nc1ccc(Br)cc1 (configuration not stated) | inactive: 1.68% |
| O=C(OCCN1CCN(CCOCc2ccccc2)CC1)C(O)(c1ccccc1)c1ccccc1 | inactive: -3.21% |
| CP(=O)(Nc1ccccc1F)Oc1ccccc1 (configuration not stated) | inactive: 14.7% |
| CP(=O)(Nc1ccccc1)Oc1ccc(F)cc1 (configuration not stated) | inactive: 9.01% |
| CCN(CC)CCCOC(=O)C(O)(c1ccccc1)C1CCCCC1 (configuration not stated) | inactive: 5.2% |
| Cc1c([N+](=O)[O-])cc([N+](=O)[O-])c(Br)c1[N+](=O)[O-] | inactive: -6.35% |
| COc1ccc(OP(C)(=O)Nc2ccc(SC(F)(F)F)cc2)cc1 (configuration not stated) | inactive: -16.4% |
| CCOC(=O)c1ccc(NP(C)(=O)Oc2ccc(F)cc2)cc1 (configuration not stated) | inactive: 20.7% |
| Cc1c(C(c2ccc3c(c2)OCO3)c2c(C)n(C)n(-c3ccccc3)c2=O)c(=O)n(-c2ccccc2)n1C.O=[N+]([O-])c1cc([N+](=O)[O-])c(O)c([N+](=O)[O-])c1 | inactive: -0.904% |
| Cc1cc(-c2cccc3ccccc23)c(C)cn1.O=[N+]([O-])c1cc([N+](=O)[O-])c(O)c([N+](=O)[O-])c1 | inactive: -19.5% |
| O=[N+]([O-])c1ccc(OP2(=O)COCCO2)cc1 (configuration not stated) | inactive: 23.9% |
| COc1ccc(NP(C)(=O)Oc2ccccc2OC)cc1 (configuration not stated) | inactive: -7.96% |
| CN(C)CCOC(=O)C(O)(c1ccccc1)C1CCCCC1 (configuration not stated) | inactive: -8.67% |
| COc1ccc(OP(C)(=O)Nc2cccc(Br)c2)cc1 (configuration not stated) | inactive: -4.42% |
| Cc1ccccc1NP(C)(=O)Nc1ccccc1C | inactive: 5.83% |
| CP(=O)(Nc1ccc2c(c1)OCCO2)Oc1ccccc1 (configuration not stated) | inactive: -1.55% |
| CCOP(C)(=S)SCC(=O)NC(C)(CC)C(=O)O (configuration not stated) | inactive: -0.526% |

| SMILES | activity change, negative = inhibition |
| --- | --- |
| CP(=O)(Nc1ccc(SC(F)(F)F)cc1)Oc1ccc(F)cc1 (configuration not stated) | inactive: -18.3% |
| Cc1nc2ccc3ccccc3c2s1.O=[N+]([O-])c1cc([N+](=O)[O-])c(O)c([N+](=O)[O-])c1 | inactive: -15% |
| O=[N+]([O-])c1cc([N+](=O)[O-])c(-c2cnn(-c3ccccc3)c2)c([N+](=O)[O-])c1 | inactive: -4.98% |
| CN(Cc1cccnc1)C(=O)COc1ccc(Cl)c(Cl)c1.O=[N+]([O-])c1cc([N+](=O)[O-])c(O)c([N+](=O)[O-])c1 | inactive: -4.13% |
| O=[N+]([O-])c1cc([N+](=O)[O-])c(-n2nnc3ccccc32)c([N+](=O)[O-])c1 | inactive: -12.6% |
| CCCOc1ccc(NP(C)(=O)Oc2ccc(Cl)cc2)cc1 (configuration not stated) | inactive: -15% |
| CP(=O)(Nc1ccc(SC(F)(F)F)cc1)Oc1ccccc1 (configuration not stated) | inactive: -16.2% |
| COc1ccc(-c2ccccn2)cc1.O=[N+]([O-])c1cc([N+](=O)[O-])c(O)c([N+](=O)[O-])c1 | inactive: -15.3% |
| COc1ccccc1OP(C)(=O)Nc1c(C)cccc1C (configuration not stated) | inactive: -7.03% |
| CN1CCCCC1COC(=O)C1(O)c2ccccc2CCc2ccccc21 (configuration not stated) | inactive: -19.7% |
| O=[N+]([O-])c1cc([N+](=O)[O-])c(Nc2nnnn2CCO)c([N+](=O)[O-])c1 | inactive: -4.91% |
| CC1=NCCc2c1[nH]c1ccccc21.O=[N+]([O-])c1cc([N+](=O)[O-])c(O)c([N+](=O)[O-])c1 | inactive: 11.4% |
| CP(=O)(Nc1cccc(Br)c1)Oc1ccccc1 (configuration not stated) | inactive: -0.538% |
| Cc1ccc(C)c(NP(C)(=O)Oc2ccccc2)c1 (configuration not stated) | inactive: -6.1% |
| Cc1cc(C)cc(OP(C)(=O)Nc2ccc(C)cc2C)c1 (configuration not stated) | inactive: -9.94% |
| CCOC(=O)c1ccc(NP(C)(=O)Oc2cc(C)cc(C)c2)cc1 (configuration not stated) | inactive: -27.2% |
| COc1ccccc1OP(C)(=O)Nc1cccc(Br)c1 (configuration not stated) | inactive: 3.09% |
| COc1ccccc1-c1ccccn1.O=[N+]([O-])c1cc([N+](=O)[O-])c(O)c([N+](=O)[O-])c1 | inactive: -10.1% |
| CCN(CC)CCCOC(=O)C(O)(c1ccccc1)c1ccccc1 | inactive: 4.53% |
| COc1ccc(OP(C)(=O)Nc2cccc(F)c2)cc1 (configuration not stated) | inactive: 9.58% |
| COc1ccccc1OP(C)(=O)Nc1cc(Cl)ccc1C (configuration not stated) | inactive: 4.85% |

| SMILES | activity change, negative = inhibition |
| --- | --- |
| Cc1cc(C)cc(OP(C)(N)=O)c1 (configuration not stated) | inactive: 5.1% |
| CCOC(=O)c1ccc(NP(C)(=O)Oc2ccccc2)cc1 (configuration not stated) | inactive: 10.9% |
| Cc1ccc(NP(C)(=O)Oc2ccccc2)c(C)c1 (configuration not stated) | inactive: -0.307% |
| COc1ccccc1OP(C)(=O)Nc1ccc(C)cc1 (configuration not stated) | inactive: -0.397% |
| Cc1cccc(C)c1OP(C)(N)=O (configuration not stated) | inactive: 1.1% |
| CC(C)(C)c1ccc(OP(C)(=O)Nc2ccc(SC(F)(F)F)cc2)cc1 (configuration not stated) | inactive: -26% |
| O=[N+]([O-])c1ccc2c(c1)C=Nc1ccccc1O2 | inactive: -18.7% |
| O=[N+]([O-])c1cc([N+](=O)[O-])c(Nc2cccnc2)c([N+](=O)[O-])c1 | inactive: 2.97% |
| COc1ccccc1OP(C)(=O)Nc1ccccc1 (configuration not stated) | inactive: 4.51% |
| CP(=O)(Nc1ccccc1Br)Oc1ccccc1 (configuration not stated) | inactive: 9.11% |
| CP(=S)(Nn1cnnc1)Oc1ccccc1 (configuration not stated) | inactive: -13.7% |
| CP(=O)(Nc1ccccn1)Oc1ccc(Cl)cc1 (configuration not stated) | inactive: -0.767% |
| CCOP(C)(=S)SCC(=O)NC(C)C(=O)O (configuration not stated) | inactive: -2.63% |
| CCOC(=O)c1ccc(NP(C)(=O)Oc2ccc(OC)cc2)cc1 (configuration not stated) | inactive: 15.2% |
| O=[N+]([O-])c1cc([N+](=O)[O-])c(O)c([N+](=O)[O-])c1.c1ccc(Oc2ccncc2)cc1 | inactive: -13.2% |
| CP(=O)(NC(=O)Nc1ccccc1)Oc1ccccc1 (configuration not stated) | inactive: -12.2% |
| CCc1ccc(OP(C)(=O)N2CCN(c3ccc([N+](=O)[O-])cc3)CC2)cc1 (configuration not stated) | inactive: -10.9% |
| CP(=O)(Oc1ccccc1)OC(c1ccccc1)C(F)(F)F (configuration not stated) | inactive: -19.6% |
| Cc1cccc(C)c1OP(C)(=O)Nc1ccc(SC(F)(F)F)cc1 (configuration not stated) | inactive: -5.36% |
